Yeast mating assay B: variants of the scFv Ab-14

The measurements come from Li et al. 2023 (doi:10.1038/s41467-023-39022-2) through the FLAb antibody collection.

Target: peptide PDVDLGDISGINAS, taken from heptad repeat 2 (HR2) of SARS-CoV-2 spike.

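The parent was found by panning a naive human phage display library on the peptide. This is the validation round: designs drawn from the data on random variants, tested in the same kind of assay. Group labels follow the data file (Ctrl: baseline library sampled from a position-specific scoring matrix, with some repeated check sequences; En: ensemble of fine-tuned language models; GP: Gaussian process model; HC: hill climbing; Gen: genetic algorithm; Gibbs: Gibbs sampling; a sequence that several methods proposed may carry one label only). AlphaSeq pools MATa yeast showing the antibodies with MATalpha yeast showing the peptide. Binding brings cells together so that they mate, and sequencing counts the barcode pairs among the diploids. The ratio of observed to expected reads was calibrated, replicate by replicate, on BCL2-family standards whose Kd was known from biolayer interferometry. Each pool was mated in six replicate cultures.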

The variants keep the heavy chain, the linker and the frameworks of Ab-14 (scFv order VH, a (GGGGS)3 linker, VL).
VH: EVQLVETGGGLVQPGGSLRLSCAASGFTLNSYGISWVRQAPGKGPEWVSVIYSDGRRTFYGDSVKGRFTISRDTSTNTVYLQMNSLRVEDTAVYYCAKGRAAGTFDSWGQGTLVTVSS
VL: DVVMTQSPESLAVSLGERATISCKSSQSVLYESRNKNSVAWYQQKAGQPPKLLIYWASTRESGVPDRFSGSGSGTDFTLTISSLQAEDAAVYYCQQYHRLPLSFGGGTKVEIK

Each variant is given by its three light chain CDRs, as the data file delimits them; those of the parent are KSSQSVLYESRNKNSVA, WASTRES, QQYHRLPLS.
The Kd shown is the geometric mean over detected replicates; a lower Kd is a better binder.
"no signal" marks a missing value. The strain was present, yet no cells mated with the target were sequenced in any replicate, which points to weak or no binding.
Of ten entries with the parent sequence, four were seen in most replicates (averages 2.2 nM to 240 nM), three in one and three in none, so single entries are noisy.
Some sequences occur more than once in the pool; their replicates are pooled.
As a blank, each scFv also met three strains without target: over all light chain designs, 4% of these pairings were detected, typically at 430 nM and seldom below 38 nM.
In the paper, a design with two or fewer of six values counts as a poor binder.
A sequence measured in both rounds can read differently, since the two assays cover different ranges.

CDR-L1	CDR-L2	CDR-L3	group	Kd (apparent)	seen in
KISSMVRVGQTHSNSIA	EEAKRAD	QQYHRLPLA	En_Gen	49 nM	2/6
HITMGMYVAGHHHSSIA	QAETRAK	QQYDRLPLI	En_Gen	19 nM	6/6
HVPNYPENFRSAKDNIA	DQSATTS	QQYDRLPLA	En_Gibbs	2.4 nM	6/6
KSSMSVLYESRNKNSVA	WASTRES	QQYHRLPLS	Ctrl	34 nM	5/6
KLSQSQLYESRNKNSVA	EASTRES	QQYHRLPLS	Ctrl+GP_Gen	1.1 nM	12/12
QMKASLSQGIYRQDSVA	SDDIRVL	QQYHHLPLS	En_Gibbs	82 nM	6/6
KSSQSVLYESRNKNSVA	WASTRIS	VQYHRLPLS	Ctrl	no signal	0/6
KLSQSVLYESRNKNSVA	NASTRCW	QQYHRLPLS	GP_Gen	810 pM	6/6
MISEVLNTLTKEGSNVA	DLAERER	QQYFRLPLS	En_Gen	74 nM	5/6
KSSQSVLTGSWNLNSVA	WASTRES	QQYHRLPLS	Ctrl	no signal	0/6
KLYEMSYELSGKTHSVA	DNSTRGD	QQYFRLPLE	En_Gen	4.5 nM	6/6
KISQEVLYESVNKNSVA	GASIRES	QNYHRLPSS	Ctrl	6.0 nM	6/6
KLSAFHQVESINKSNVA	EMVTRES	QQYDRLPLS	En_HC	3.8 µM	2/6
KLSKMVMMGSRNKNSVA	SASQREE	QQYHRLPLS	GP_Gibbs	1.2 nM	6/6
KLYDEATNRVGTAENIA	EKEISLQ	QQYHRLPLS	En_Gibbs	19 nM	6/6
KVSQSELYESRQFNSVA	HASQREL	QQYHRLPLS	GP_Gibbs	2.2 nM	6/6
KLSQSWLYESRNKNSVA	HASTRMS	QQYHRLPLS	GP_Gen	2.3 nM	6/6
KSSQSVLYESRDKNSVA	WASTRES	QQIHRLPLS	Ctrl	no signal	0/6
KLSQSVLYESRNTNSVA	KASTRES	QQYHRLPLS	Ctrl	2.0 nM	6/6
QIFFDDFEYGIESQNIA	QGSMREV	QQYARLPLV	En_Gibbs	5.1 nM	6/6
MFSQLFMYGSRNYNSVA	QASTREN	QQYDRLPLI	En_HC	40 nM	6/6
SFPSEMNQQQTQVNSVA	GEQHTAR	QQYGRLPLS	En_Gibbs	no signal	0/6
IVSQLMLWGYHAKNSIA	EAVTRLN	QQYERLPLF	En_Gen	1.1 nM	6/6
HLGQEGYNQTYAMKSVA	DQNTALE	QHYSRLPLT	En_Gibbs	8.2 nM	6/6
KSEPLYYYGDRNKNSVA	QASTRES	QQYHRLPLS	GP_Gibbs	960 pM	6/6
RYQMDDQEGKTARNNIA	DGAEVYR	QQYARLPLT	En_Gibbs	no signal	0/6
KYSQEVMEESRNKNSVA	NASTREE	QQYHRLPLS	GP_Gibbs	740 pM	6/6
KSSQSVLYEQRNKNSVA	QASTRES	QQYHRLPLS	Ctrl	19 nM	6/6
QLERDALWGANYDYSVA	AQDVALP	QQYFRLPLI	En_Gibbs	53 nM	2/6
MISNEQAYGYSATNSVA	DVTEKLN	QQYKRLPLT	En_Gibbs	3.5 nM	6/6
HISMMVGTKGYNKNSVA	NAETRSD	QQYHRLPLS	En_HC	5.7 nM	6/6
KSSGSDLYESRNKNSVA	EASTREQ	QQYHRLPLS	GP_HC	560 pM	6/6
KISQSVPYESRNKNSVA	QASTRES	QQYHRLPLS	Ctrl	1.3 nM	6/6
KVSQSVLYESRDKNSVA	DASTRCS	QQYHRLPLS	GP_HC	780 pM	6/6
KLGGVTSYEMQTKNSVA	QMTTRES	QQYHRLPLS	En_HC	3.2 nM	6/6
KSLQSQEYESRNKNSVA	HASTRED	QQYHQLPLS	GP_HC	650 pM	6/6
KLPMSTLYESRNKNSVA	WASTRES	QQYHRLPLS	GP_HC	1.2 nM	6/6
KIGMTLNQLLHQKNNVA	DLVMREN	QQYFRLPLS	En_Gen	4.3 nM	6/6
KISQTFNVGTTNKNSLA	EMSTRGF	QDYHRLPLS	En_HC	7.7 nM	6/6
KLSQSVLYEERNKNSVA	NASQREQ	QQYHRLPLS	GP_Gen	2.6 nM	6/6
RLDFQDLMWQYDANNIA	GATLSIE	QQYGRLPLT	En_Gibbs	no signal	0/6
IISGSMLMESRNKNSVA	NAELREY	QHYDRLPLS	En_HC	7.1 nM	6/6
KSSMSFLYESRNKNSVA	EASTRES	QQYHRLPLS	GP_HC	1.4 nM	6/6
SISYLDYRGSQGHNNIA	EGSQRAE	QQYIRLPLN	En_Gibbs	2.5 nM	6/6
KLRQSTLYESRNKNSVA	SASTRLS	QQYHRLPLS	GP_HC	13 nM	6/6
QMTHPSASWQANQASIA	DASLSLQ	QQYAQLPLM	En_Gibbs	7.3 nM	6/6
KSSTSVLMESRNKNSVA	WASTRES	QQYHRLPLS	Ctrl	68 nM	3/6
KLPQSTLYESRNPNSVA	WASTRED	QQYHRLPLS	GP_HC	1.9 nM	6/6
KSSQSVWYESRNKNSVA	AASTRES	QQYHRLNLS	Ctrl	98 nM	5/6
MISQSFYIGMKAKNSVA	QTNTREE	QQYDRLPLI	En_HC	4.1 nM	6/6
TIGMFMDNLMSNRNNVA	DTSTLGD	QSYDRLPLS	En_Gen	46 nM	6/6
KLDQSDLYESRNKNSVA	EASTRES	QQYHRLPLS	GP_Gen	730 pM	6/6
KLSQSDLYDSRNKNSVA	DASTRES	QQYHSLPLS	Ctrl	990 pM	6/6
NMNVGLNFGGIQHQAIA	EVEKRES	QQYARLPLT	En_Gibbs	5.8 nM	6/6
KFSQWWLYESRTKNSVA	NASYRES	QQYHRLPLS	GP_HC	2.2 nM	6/6
ASSQSVLHESRNKNSVA	WASTRES	QQYHRLPLS	Ctrl	11 nM	1/6
KLSGSDLYESRNKNSVA	GASTRES	QQYHRLPLS	GP_Gen	240 pM	6/6
KLRNSWNGWYNDWASIA	EANMYAP	QQYQRLPFA	En_Gibbs	60 nM	6/6
KSQQSVPYESRNKNNVA	HASTRED	QQYHRLPLS	GP_HC	1.3 nM	6/6
KISQSWLYESRNSNSVA	NASTREL	QDYHRLPLS	GP_Gibbs	1.4 nM	6/6
KLPQSWLYESRNKNSVA	HASTRES	QQYHRLPLS	GP_Gen	3.2 nM	6/6
HLGLATMLEEYVRNSVA	NNSTREV	QQYDRLPLS	En_Gen	650 nM	5/6
KSSDSVLYESRGLNSVA	WASTRES	QQYHRLPLS	Ctrl	130 nM	6/6
KLYERGEESSKVDRSIA	EMSTRQE	QSYQRLPLS	En_Gibbs	7.1 nM	6/6
KSSCGVLYESRNKNSVA	GASTRES	QQYHRLPLS	GP_HC	850 pM	6/6
KHEEGVWYESRNKNSVA	NASTRLS	QQYHRLPLS	GP_Gibbs	650 pM	6/6
KISQMIRVGSTHSNSIA	EEQTRAK	QQYHRLPLS	En_Gen	6.1 nM	6/6
KSSQSVLSESRNKNSVA	WASTRES	QQYHRLPLS	Ctrl	51 nM	6/6
KLSQSELYESRNKNSVA	NASTREE	QQYHRLPLS	GP_Gen	2.0 nM	6/6
MISQVTGLGQRQRNNVA	QTSTREP	QQYDRLPLI	En_Gen	no signal	0/6
KIMQSYLGEMRNCNSVA	NASTRES	QQYHRLPLS	GP_Gibbs	4.4 nM	6/6
KKSQQVLYESRNKNSVA	RASTRES	QQYHRLPLS	Ctrl	no signal	0/6

Excerpt, the first 4 entries:

CDR-L1	CDR-L2	CDR-L3	group	Kd (apparent)	seen in
KISSMVRVGQTHSNSIA	EEAKRAD	QQYHRLPLA	En_Gen	49 nM	2/6
HITMGMYVAGHHHSSIA	QAETRAK	QQYDRLPLI	En_Gen	19 nM	6/6
HVPNYPENFRSAKDNIA	DQSATTS	QQYDRLPLA	En_Gibbs	2.4 nM	6/6
KSSMSVLYESRNKNSVA	WASTRES	QQYHRLPLS	Ctrl	34 nM	5/6